Laboratory results reported in patent publication US20070213394A1 (priority 2004, published 2007).

Chains of the proteins cited; added tags and fusions are not shown. Lines headed by an entry give the natural chain unless they say otherwise; changes in a name come on top.
UniProt P41145: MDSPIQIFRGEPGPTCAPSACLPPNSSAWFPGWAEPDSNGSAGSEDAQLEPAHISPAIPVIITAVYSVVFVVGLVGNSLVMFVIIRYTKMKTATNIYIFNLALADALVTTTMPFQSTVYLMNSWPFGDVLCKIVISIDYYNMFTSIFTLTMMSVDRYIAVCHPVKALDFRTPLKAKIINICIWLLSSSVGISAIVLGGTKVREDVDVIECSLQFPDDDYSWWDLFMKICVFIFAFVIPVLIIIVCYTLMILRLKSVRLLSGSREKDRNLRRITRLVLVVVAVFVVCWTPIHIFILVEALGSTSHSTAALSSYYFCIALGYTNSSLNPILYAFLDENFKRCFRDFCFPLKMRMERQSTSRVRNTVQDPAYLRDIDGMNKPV

What was measured:
[1] = biological target: T1, human kappa opioid receptor (Homo sapiens, UniProt P41145); assay: [35S]GTPγS binding assay, membranes of CHO-hKOR cells; assay type: biochemical; details: Table 1, N.A. is No Affinity; for Efficacy: Percent of the maximal effect of U50,488H; for EC50: human kappa opioid receptor
[2] = biological target: T1, human kappa opioid receptor; details: Table 1

Work on `COCO[C@H]1C[C@@H](C(=O)OC)[C@]2(C)CC[C@@H]3C(=O)O[C@H](c4ccoc4)C[C@]3(C)C2C1=O` (stereo partly drawn) yielded an Efficacy [1] of 100%, an EC50 [1] of 0.092 µM and a Ki [2] of 0.03 µM.
`COCO[C@H]1C[C@@H](C(=O)OC)[C@]2(C)CC[C@H]3C(=O)O[C@H](c4ccoc4)C[C@]3(C)C2C1=O` (stereo partly drawn) was tested, and the Efficacy [1] was 98%, the EC50 [1] was 0.0006 µM and the Ki [2] was 0.0004 µM.
